Measurements: patent publication US9688712B2, “Manufacturing method for polyphenol composition” (KAO CORPORATION, priority 2010, dated 2017)

Assay: Measurement of log P value of the hardly water-soluble polyphenols (flask shaking method, JIS Z7260-107)
Experimental: The log P value is a common logarithm of the partition coefficient between 1-octanol, and water and an index indicative of a hydrophobicity of an organic compound. Larger positive log P value indicates larger hydrophobicity. […] The details are described in Examples.
[Measurement of Log P Value of the Hardly Water-Soluble Polyphenols]
First, 1-octanol and distilled water were shaken for 24 hours at 25° C. to equilibrate them. Then, 10 mg of polyphenol was weighed into a glass vial with a cap, into which each of 4 mL of the equilibrated 1-octanol and water was added. The vial was shaken for 4 days at 25° C. […] Log P value is a common logarithm of the partition coefficient between the two phases.

## C[C@@H]1O[C@@H](OC[C@H]2O[C@@H](Oc3c(-c4ccc(O)c(O)c4)oc4cc(O)cc(O)c4c3=O)[C@H](O)[C@@H](O)[C@@H]2O)[C@H](O)[C@H](O)[C@H]1O [rutin]
  logP at 4 days: -0.33
